What was measured:
[1] = tested on: high-fructose, high-saturated fatty acid, high-cholesterol diet (FFC diet) model; test: Therapeutic effect on FFC diet model (diet-induced MASH model mice); settings: FFC+MA5 group vs FFC group
Experimental: In order to confirm that the present compound is effective for the treatment of MASLD, analyses were performed using a high-fructose, high-saturated fatty acid, high-cholesterol diet (FFC diet) model, that is, diet-induced MASH model mise.
After 49-week-old C57BL/6J mice (obtained from Japan SLC, Inc.) (male, n=16) and 50-week-old C57BL/6J mice (obtained from CLEA Japan, Inc.) (male, n=10) were acclimatized for one week, they were randomly divided into three intervention groups (control group [n=6], FFC group [n=10], and FFC+MA5 group [n=10]) and subjected to intervention for 25 weeks. The control group was fed a standard diet (CE-2, manufactured by CLEA Japan, Inc.) and water, the FFC group was fed a high-fat, high-cholesterol diet (Western Diet powder [manufactured by Research Diets, Inc., D12079BM]) and high-glucose, high-fructose water (18.9 g D-glucose/L, 23.1 g D-fructose/L), and the FFC+MA5 group was fed a diet obtained by mixing the above high-fat, high-cholesterol diet with MA5 in a mass ratio of 0.012% (equivalent to approximately 5 mg/kg/day of MA5 when converted to a human dosage based on the conversion factor per body surface area) and the above high-glucose, high-fructose water. The mice were weighed and the various diets and water were replenished once a week. After 15 weeks of intervention (i.e., at 64 to 65 weeks of age), the mice in each group were anesthetized, and approximately 200 µL of blood samples were collected from the orbital venous plexus. After 25 weeks of intervention (i.e., at 74 to 75 weeks of age), the mice were euthanized after 4 hours of fasting, and blood samples and liver tissue were rapidly collected. After plasma separation, the blood samples were measured for blood AST activity and blood ALT activity using Spotchem II Kenshin-2 (manufactured by ARKRAY, Inc.). Based on the collected liver tissue, formalin-fixed, paraffin-embedded specimens were prepared and subjected to HE staining, and inflammation levels in the liver tissue were measured using an optical microscope based on the NAFLD activity score (NAS). Further, Masson's trichrome staining was performed, and fibrosis levels in the liver tissue were measured using an optical microscope according to the method described in the document "Hepatology. 2005 Jun;41(6):1313-21."

[2] = tested on: methionine- and choline-deficient diet (MCD diet) model; test: Therapeutic effect on MCD diet model (diet-induced MASLD model mice); settings: MCD+MA5 group vs MCD group, MA5 0.012% in diet, n=2 per group
Experimental: In order to confirm that the present compound is effective for the treatment of MASLD, analyses were performed using a methionine- and choline-deficient diet (MCD diet) model, that is, diet-induced MASLD model mice.
After 54-week-old C57BL/6J mice (obtained from Japan SLC, Inc.) (male, n=6) were acclimatized for one week, they were randomly divided into three intervention groups (control group [n=2], MCD group [n=2], and MCD+MA5 group [n=2]) and subjected to intervention until the individual mice died. The control group was fed a standard diet (CE-2, manufactured by CLEA Japan, Inc.) and water, the MCD group was fed a methionine- and choline-deficient diet (manufactured by Research Diets, Inc., A02082002BRM) and water, and the MCD+MA5 group was fed a diet obtained by mixing the above methionine- and choline-deficient diet with MA5 in a mass ratio of 0.012%, and water. During the period until the individual mice died, the mice were weighed and the various diets and water were replenished once a week.

[3] = tested on: diet- and drug-induced MASH model mice with advanced fibrosis; test: Therapeutic effect on diet- and drug-induced MASH model mice with advanced fibrosis; settings: advanced fibrosis+MA5 group vs advanced fibrosis group (FFC+CCl4), MA5 25 mg/kg orally three times a week, 6 weeks, n=1 per group
Experimental: In order to confirm that the present compound is effective for the treatment of MASLD, analyses were performed using diet- and drug-induced MASH model mice with advanced fibrosis.
After 12-week-old C57BL/6J mice (obtained from Japan SLC, Inc.) (male, n=2) were acclimatized for one week, they were randomly divided into two intervention groups (advanced fibrosis group [n=1] and advanced fibrosis+MA5 group [n=1]) and subjected to intervention for 6 weeks. In order to create MASLD model mice with advanced fibrosis for these two intervention groups, the mice were fed a high-fat, high-cholesterol diet (Western Diet powder [manufactured by Research Diets, Inc., D12079BM]) and high-glucose, high-fructose water (18.9 g D-glucose/L, 23.1 g D-fructose/L), and carbon tetrachloride, which is a drug that induces liver damage and liver fibrosis, was continuously administered intraperitoneally. Further, the advanced fibrosis group was orally administered with DMSO three times a week using a feeding tube, and the advanced fibrosis+MA5 group was orally administered with MA5 (25 mg/kg) three times a week using a feeding tube. The diet and water were replenished once a week. […] After plasma separation, the blood samples were measured for blood AST activity and blood ALT activity using Spotchem II Kenshin-2 (manufactured by ARKRAY, Inc.). […]

[4] = tested on: high-fat, methionine-restricted, tyrosine-deficient diet (HF-MRTD diet) model; test: Therapeutic effect on HF-MRTD diet model (diet-induced MASLD model mice); settings: HF-MRTD+MA5 group vs HF-MRTD group, MA5 0.012% in diet
Experimental: In order to confirm that the present compound is effective for the treatment of MASLD, analyses were performed using a high-fat, methionine-restricted, tyrosine-deficient diet (HF-MRTD diet) model, that is, diet-induced MASLD model mice.
After 6-week-old C57BL/6J mice (obtained from Japan SLC, Inc.) (male, n=15) were acclimatized for one week, they were randomly divided into three intervention groups (control group [n=5], HF-MRTD group [n=5], and HF-MRTD+MA5 group [n=5]) and subjected to intervention for 22 weeks. The control group was fed a standard diet (CE-2, manufactured by CLEA Japan, Inc.) and water, the HF-MRTD group was fed a powdered MRTD diet (a diet containing 60% fat by calorie and 0.2% methionine by mass, prepared according to the method described in the document "Hepatology. 2021 Sep;74(3):1271-1286.") and high-glucose, high-fructose water (18.9 g D-glucose/L, 23.1 g D-fructose/L), and the HF-MRTD+MA5 group was fed a diet obtained by mixing the above powdered MRTD diet with MA5 in a mass ratio of 0.012%, and the above high-glucose, high-fructose water. The various diets and water were replenished once a week. After 13 weeks of intervention (i.e., at 19 weeks of age), the mice in each group were anesthetized, and approximately 200 µL of blood samples were collected from the orbital venous plexus. After 22 weeks of intervention (i.e., at 28 weeks of age), the mice were euthanized after 4 hours of fasting, and blood samples and liver tissue were rapidly collected. After plasma separation, the blood samples were measured for blood AST activity and blood ALT activity using Spotchem II Kenshin-2 (manufactured by ARKRAY, Inc.). Based on the collected liver tissue, formalin-fixed, paraffin-embedded specimens were prepared and subjected to HE staining, and steatosis levels in liver tissue were measured using an optical microscope based on NAS. Further, Masson's trichrome staining was performed, and fibrosis levels in the liver tissue were measured using an optical microscope according to the method described in the document "Hepatology. 2005 Jun;41(6):1313-21."

O=C(CC(C(=O)O)c1c[nH]c2ccccc12)c1ccc(F)cc1F (stereo not shown)
inflammation levels in the liver tissue ([1]; MA5 0.012% in diet, 25 weeks, HE staining, NAFLD activity score (NAS), Figure 2B): significant decreases in the increased inflammation
fibrosis levels in the liver tissue ([1]; MA5 0.012% in diet, 25 weeks, Masson's trichrome staining, Figure 2C): significant decreases
blood AST activity ([1]; MA5 0.012% in diet, after 25 weeks of intervention (Figure 1C), effects maintained over at least 15 to 25 weeks): a significant reduction in the increased blood AST activity
blood ALT activity ([1]; MA5 0.012% in diet, after 25 weeks of intervention (Figure 1E), effects maintained over at least 15 to 25 weeks): a significant reduction
mouse body weight ([1]; MA5 mixed in diet at mass ratio 0.012%, intervention for 25 weeks, Figure 1A): a reduction in the increased body weight
mouse lifespan (survival rate) ([2]; Figure 5B): an extension of the shortened mouse lifespan
mouse body weight ([2]; until the individual mice died, Figure 5A): an increase in the decreased mouse body weight
blood AST activity ([3]; Figure 6A): reductions in the increased blood AST activity
blood ALT activity ([3]; Figure 6B): reductions
steatosis levels in liver tissue ([4]; 22 weeks, HE staining, NAS, Figure 4B): a decrease in the increased steatosis level
fibrosis levels in the liver tissue ([4]; 22 weeks, Masson's trichrome staining, Figures 4A and 4C): a significant decrease in the increased fibrosis level
blood AST activity ([4]; after 22 weeks of intervention (Figure 3B), effects maintained over at least 13 to 22 weeks): a reduction in the increased blood AST activity
blood ALT activity ([4]; after 22 weeks of intervention (Figure 3D), effects maintained over at least 13 to 22 weeks): a significant reduction in the increased blood ALT activity

— patent EP4847022A1, “AGENT FOR PREVENTING OR AMELIORATING METABOLIC DYSFUNCTION-ASSOCIATED STEATOTIC LIVER DISEASES” (dated 2026)
